Assay results from paper PMC7158214 (Clinical Pharmacology and Therapeutics, 2020).

Test system: OATP1B
Test: Nonlinear regression of AUCR^-1 vs rifampicin Cmax
Assay type: in vivo, human
Conditions: from AUCR based on AUC0-24h

fRIF (fraction sensitive to inhibition by rifampicin): 0.943 ± 0.072
Substance: coproporphyrin I [CP-I]
